# Experimental data as given in patent EP0521963B1, “CRF ANALOGS” (THE SALK INSTITUTE FOR BIOLOGICAL STUDIES, priority 1990, dated 1998).
# Assays:
# [1] = system: cultured rat pituitary cells; experiment: Stimulation of secretion of ACTH and β-endorphin by cultured rat pituitary cells (procedure of Endocrinology, 91, 562 (1972)); type: cell-based; details: testing in accordance with the general procedure set forth hereinbefore; result in words
# Text: This synthetic peptide is examined for its effects on the secretion of ACTH and β-endorphin in vitro and also in vivo.
# [2] = Lowering of blood pressure; type: in vivo; details: result in words; method details not given
structure (smiles),measurement,setting,value
"CCCC[C@H](NC(=O)[C@H](CCC(=O)O)NC(=O)[C@H](CC(C)C)NC(=O)[C@@H](NC(=O)[C@H](CCC(=O)O)NC(=O)[C@H](CCCNC(=N)N)NC(=O)[C@H](CC(C)C)NC(=O)[C@H](CC(C)C)NC(=O)[C@H](Cc1c[nH]cn1)NC(=O)[C@@H](Cc1ccccc1)NC(=O)[C@@H](NC(=O)[C@H](CC(C)C)NC(=O)[C@H](CC(=O)O)NC(=O)[C@H](CC(C)C)NC(=O)[C@H](CO)NC(=O)[C@@H](NC(=O)[C@@H]1CCCN1C(=O)[C@@H]1CCCN1C(=O)[C@H](CCC(=O)O)NC(=O)[C@H](CCC(N)=O)NC(=O)[C@@H](N)CO)[C@@H](C)CC)[C@@H](C)O)C(C)C)C(=O)N[C@H](C(=O)N[C@@H](CCCCN)C(=O)N[C@@H](C)C(=O)N[C@@H](CC(=O)O)C(=O)N[C@@H](CCC(N)=O)C(=O)N[C@@H](CC(C)C)C(=O)N[C@@H](C)C(=O)N[C@@H](CCC(N)=O)C(=O)N[C@@H](CCC(N)=O)C(=O)N[C@@H](C)C(=O)N[C@@H](Cc1c[nH]cn1)C(=O)N[C@@H](CO)C(=O)N[C@@H](CC(N)=O)C(=O)N[C@@H](CCCNC(=N)N)C(=O)N[C@@H](CCCCN)C(=O)N[C@@](C)(CC(C)C)C(=O)N[C@@H](CCCC)C(=O)N[C@@H](CC(=O)O)C(=O)N[C@H](C(=O)N[C@@H](C)C(N)=O)[C@@H](C)CC)[C@@H](C)O [V, [D-Phe^12, Nle^21,38, CML^37]-oCRF]",secretion of ACTH and β-END-LI,[1],stimulates the secretion of ACTH and β-END-LI
same,lowering of blood pressure,[2],very significant lowering of blood pressure
